The list shows a part of the results, in another mix than the full data. Some salts or complexes appear as unconnected parts, following the source record. The source made the active and inactive calls.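 How the source made its calls: active means inhibition of cGAS enzyme activity at or above 60%; inactive means the rest.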
biological target: Cyclic GMP-AMP synthase (Mus musculus) (UniProt Q8C6L5); assay: inhibitors of Mus musculus cyclic GMP-AMP synthase, initial high-throughput assay, cell-free, RapidFire MS (AID 1259397); conditions: recombinant mouse cGAS, cGAMP by RapidFire MS; at 12.5 µM; hits give high values;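 further: enzyme stimulated by 45 bp dsDNA with ATP and GTP substrates; cGAMP share of summed cGAMP plus half ATP and half GTP signals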

Protein sequences, listed by entry. Tags and fused reporters are not part of them.
UniProt Q8C6L5, whole entry: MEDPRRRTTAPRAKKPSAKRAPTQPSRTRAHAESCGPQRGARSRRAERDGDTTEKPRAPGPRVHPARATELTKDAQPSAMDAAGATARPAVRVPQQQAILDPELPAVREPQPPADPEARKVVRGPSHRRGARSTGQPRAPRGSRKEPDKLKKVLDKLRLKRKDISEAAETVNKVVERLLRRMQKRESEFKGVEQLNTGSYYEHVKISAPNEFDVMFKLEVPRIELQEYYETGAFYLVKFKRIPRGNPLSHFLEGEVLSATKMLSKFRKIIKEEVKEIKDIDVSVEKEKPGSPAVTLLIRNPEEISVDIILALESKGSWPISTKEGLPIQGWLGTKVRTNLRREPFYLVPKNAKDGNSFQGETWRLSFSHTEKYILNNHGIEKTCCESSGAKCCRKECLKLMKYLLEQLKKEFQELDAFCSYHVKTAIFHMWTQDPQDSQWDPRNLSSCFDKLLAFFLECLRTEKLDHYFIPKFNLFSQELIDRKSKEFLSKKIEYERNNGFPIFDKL

SMILES	inhibition
Cc1ccc(NP(C)(=O)Oc2ccc(C(C)C)cc2)cc1C (stereo not drawn)	inactive: -4.18%
Cc1ccc(NP(C)(=O)Oc2ccc(C(C)(C)C)cc2)cc1 (stereo not drawn)	inactive: -5.71%
COc1ccc(OP(C)(=O)Nc2ccc(Cl)cc2)cc1 (stereo not drawn)	inactive: -4.29%
Nc1cc([N+](=O)[O-])cc([N+](=O)[O-])c1O	inactive: 35.6%
CP(=O)(Nc1ccc(Br)cc1)Oc1ccc(Cl)cc1 (stereo not drawn)	inactive: 4.15%
C/C1=C2N=C(/C=C3N=C(/C(C)=C4\[N-]C(C)(C5N=C1C(C)(CCC(=O)NCC(C)OP(=O)(O)OC1C(CO)OC(n6cnc7cc(C)c(C)cc76)C1O)C5CC(N)=O)C(C)(CC(N)=O)C4CCC(N)=O)C(C)(CC(N)=O)C\3CCC(N)=O)C(C)(C)C/2CCC(N)=O.[C-]#N.[Co+3] (stereo not drawn)	inactive: -4.03%
CN(C)CCS	inactive: 1.7%
CP(=O)(O)OC(c1cccc(Cl)c1)C(F)(F)F (stereo not drawn)	inactive: -5.64%
CP(=O)(Oc1ccccc1)OC(c1ccccc1)C(F)(F)F (stereo not drawn)	inactive: -1.2%
COC(=O)NC(c1ccccc1)P(=O)(Cl)Cl (stereo not drawn)	inactive: -10.1%
CP(=O)(Nc1ccccc1Br)Oc1ccccc1 (stereo not drawn)	inactive: -4.15%
CP(=O)(O)OC(c1ccccc1)C(F)(F)F (stereo not drawn)	inactive: -5.56%
COc1ccc(OP(C)(=O)Nc2cccc(F)c2)cc1 (stereo not drawn)	inactive: 0.779%
Cc1cc(C)cc(OP(C)(N)=O)c1 (stereo not drawn)	inactive: -1.41%
CCN(C1=NCCCS1)P(O)(=S)CC (stereo not drawn)	inactive: 3.24%
CP(=O)(O)OC(c1cccc(C(F)(F)F)c1)C(F)(F)F (stereo not drawn)	inactive: -4.38%
Cc1cccc(C)c1OP(C)(N)=O (stereo not drawn)	inactive: -4.37%
CC(C)(C)c1ccc(OP(C)(N)=O)cc1 (stereo not drawn)	inactive: -3.74%
CCOP(C)(=S)SCN(CC(=O)O)C(=O)OC (stereo not drawn)	inactive: -8.96%
CP(=O)(Nc1ccc(F)cc1)Oc1ccc(Cl)cc1 (stereo not drawn)	inactive: 1.92%
CP(=O)(Nc1ccc(Cl)cc1Cl)Oc1ccccc1 (stereo not drawn)	inactive: -6.98%
COc1cccc(C(OP(C)(=O)O)C(F)(F)F)c1 (stereo not drawn)	inactive: -16.4%
CC(C)(C)c1ccc(OP(C)(=O)O)cc1	inactive: 1.17%
OCCSCCO	inactive: -1.5%
CP(N)(=O)Oc1ccccc1F (stereo not drawn)	inactive: 3.52%
Cc1cc(C)cc(OP(C)(=O)Nc2cc(Cl)ccc2C)c1 (stereo not drawn)	inactive: 5.31%
O=[N+]([O-])C1([N+](=O)[O-])COCOC1	inactive: -13.5%
CN1CC(=O)N(C)P1(C)=S (stereo not drawn)	inactive: -5.58%
